The term EC50 denotes the concentration at which the effect is half-maximal. A low value points to a more potent agent.

Sequences of proteins named here, by UniProt entry; tags and fusion partners are left off.
UniProt P08172, whole entry: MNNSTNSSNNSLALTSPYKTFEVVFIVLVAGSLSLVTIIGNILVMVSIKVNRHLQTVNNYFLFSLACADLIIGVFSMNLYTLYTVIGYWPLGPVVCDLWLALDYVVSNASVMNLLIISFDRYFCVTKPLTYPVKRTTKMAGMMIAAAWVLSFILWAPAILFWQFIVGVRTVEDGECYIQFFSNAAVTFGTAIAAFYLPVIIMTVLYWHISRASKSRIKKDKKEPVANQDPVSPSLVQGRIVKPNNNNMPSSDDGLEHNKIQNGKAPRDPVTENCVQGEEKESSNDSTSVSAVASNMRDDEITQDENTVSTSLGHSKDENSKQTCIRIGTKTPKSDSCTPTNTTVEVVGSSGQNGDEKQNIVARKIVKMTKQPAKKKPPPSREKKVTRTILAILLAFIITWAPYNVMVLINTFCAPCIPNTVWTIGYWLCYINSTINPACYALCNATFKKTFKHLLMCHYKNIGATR

The target in this experiment is Muscarinic acetylcholine receptor M2 (Homo sapiens, UniProt P08172). Put plainly: Agonist activity at human muscarinic M2 receptor expressed in CHO cells after 30 mins by GTPgamma35S binding assay. The format is functional, cell-based. On the technique in general: Binding of GTPγS marks nucleotide exchange on a G protein.

On to `CCCCCCOc1nsnc1C1=CCCN(C)C1` [XANOMELINE], for which the EC50 stood at 121 nM.

The values above are taken from ChEMBL document CHEMBL3616390, “Design and synthesis of N-[6-(Substituted Aminoethylideneamino)-2-Hydroxyindan-1-yl]arylamides as selective and potent muscarinic M₁ agonists” (Bioorg Med Chem Lett, 2015).
